Assays:
[1] = biological target: STRA6-GFP-c-Myc-His6 (STRA6-HRV3C-eGFP-Myc-His6) (human); experiment: SPR; holo-RBP (retinol-loaded, 6.9-219.3 uM) flowed over STRA6-GFP captured by its c-Myc tag on immobilised anti-c-Myc antibody (CM5, Biacore 3000); anti-HA antibody reference cell; room temperature; steady-state responses fitted to one site plus a linear low-affinity component; triplicate
[2] = biological target: STRA6-GFP-c-Myc-His6 (STRA6-HRV3C-eGFP-Myc-His6) (human); experiment: SPR; apo-RBP (6.9-219.3 uM) flowed over STRA6-GFP captured by its c-Myc tag on immobilised anti-c-Myc antibody (CM5, Biacore 3000); anti-HA antibody reference cell; room temperature; steady-state responses fitted to one site plus a linear low-affinity component; triplicate

Q: Which results are given for “retinol binding protein (His-RBP) (from UniProt P02753 19-201) (ligand)”?
A: stoichiometry N [1]: 0.64; stoichiometry N [2]: 0.71
